Reference: PMC3561363, “A Novel Retro-Inverso Peptide Inhibitor Reduces Amyloid Deposition, Oxidation and Inflammation and Stimulates Neurogenesis in the APPswe/PS1ΔE9 Mouse Model of Alzheimer’s Disease” (PLoS ONE, 2013)

Test system: APP/PS1 transgenic mice
Test: Blood brain barrier penetration and brain localisation after i.p. injection
Type: in vivo, mouse
Conditions: 100 nmol/kg i.p., 1 h, 17-month old APP/PS1 mice, brain sections
From the text: APPswe/PS1ΔE9 mice with a C57Bl/6 background (APP/PS1 mice) were obtained from the Jackson lab (http://research.jax.org/repository/alzheimers.html). To determine if Flu-RI-OR2-TAT crosses the blood brain barrier (experiment 1), 2 male 17-months-old APP/PS1 animals and 2 16-months-old C57BL/6 animals were used. To look at the effects of RI-OR2-TAT on mouse brain pathology (experiment 2), 8 female 10-months-old APP/PS1 mice were used. The animals were housed in single cages in a temperature controlled holding room (21.5°C±1) with 12∶12 h light and dark cycle. Food and water was available ad libitum.
For experiment 1, all 4 animals were injected i.p. with 100 nmol/kg of Flu-RI-OR2-TAT in 0.9% NaCl at 0 h. The animals were then housed in a dark room. After 1 h, the animals were anaesthetised with isoflurane and sodium barbiturate (Dolethal, Bayer, Germany), transcardially perfused and the brains were retrieved and fixed in 4% ice cold paraformaldehyde. […]
All sections were visualized using an Axio Scope 1 fluorescence microscope (Zeiss, Germany). For quantification, two images per section were taken from the cortex area with a 10X objective for 8-oxo guanine and β-amyloid staining, and a 100X objective for Iba1 staining, with a minimum of 5 sections visualized per animal. […]

Substance: fluorescein-rGffvlkGrrrrqrrkkrGy-NH2 [Flu-RI-OR2-TAT]
- blood brain barrier penetration: can cross the BBB
